Data set [1] relates to Rattus norvegicus. Nature of the data set: Antifibrotic activity against hypoxia induced Pulmonary Arterial Hypertension Sprague-Dawley rat model assessed as downregulation of collagen I overexpression at 10 mg/kg, po by Western blot analysis. In kind it is functional, organism-based. On the technique in general: A western blot detects proteins with antibodies after separation by electrophoresis.

Sequences of proteins named here, by UniProt entry; tags and fusion partners are left off. A change or cut given only in a name is not applied to a line headed by its entry.
UniProt Q92598: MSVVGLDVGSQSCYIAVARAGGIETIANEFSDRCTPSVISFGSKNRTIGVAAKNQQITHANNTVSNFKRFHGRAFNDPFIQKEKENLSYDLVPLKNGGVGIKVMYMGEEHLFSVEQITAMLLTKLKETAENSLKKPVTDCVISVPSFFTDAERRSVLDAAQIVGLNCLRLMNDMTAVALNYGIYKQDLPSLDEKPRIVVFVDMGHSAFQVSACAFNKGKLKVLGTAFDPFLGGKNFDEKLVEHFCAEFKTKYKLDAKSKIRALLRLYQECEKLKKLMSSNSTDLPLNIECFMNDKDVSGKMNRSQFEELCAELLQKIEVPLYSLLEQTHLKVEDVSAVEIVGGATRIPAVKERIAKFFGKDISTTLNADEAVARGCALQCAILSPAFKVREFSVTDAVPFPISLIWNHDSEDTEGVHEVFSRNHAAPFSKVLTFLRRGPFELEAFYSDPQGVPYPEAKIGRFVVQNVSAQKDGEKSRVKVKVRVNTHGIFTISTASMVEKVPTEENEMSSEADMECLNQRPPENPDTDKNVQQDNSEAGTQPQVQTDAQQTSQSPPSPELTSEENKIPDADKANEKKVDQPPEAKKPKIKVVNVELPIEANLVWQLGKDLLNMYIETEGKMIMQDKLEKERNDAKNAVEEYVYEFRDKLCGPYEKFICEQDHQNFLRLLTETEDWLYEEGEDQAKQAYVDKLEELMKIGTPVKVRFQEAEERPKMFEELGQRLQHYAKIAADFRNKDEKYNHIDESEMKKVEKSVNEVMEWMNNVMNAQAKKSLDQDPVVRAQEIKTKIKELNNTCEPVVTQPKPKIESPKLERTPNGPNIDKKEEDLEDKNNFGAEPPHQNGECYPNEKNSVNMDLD

Data set [2] concerns Rattus norvegicus. Nature of the data set: In vivo activation of sGC in hypoxia induced Pulmonary Arterial Hypertension Sprague-Dawley rat model assessed as improvement in hypoxia induced RVH level at 10 mg/kg, po qd measured after 4 weeks by H and E staining based analysis. In kind it is functional, organism-based.
The subject of data set [3] is Rattus norvegicus. The data set can be described thus: Antifibrotic activity against hypoxia induced Pulmonary Arterial Hypertension Sprague-Dawley rat model assessed as downregulation of fibronectin overexpression at 10 mg/kg, po by Western blot analysis. In kind it is functional, organism-based.
Data set [4] concerns Rattus norvegicus. The data set can be described thus: Antifibrotic activity against hypoxia induced Pulmonary Arterial Hypertension Sprague-Dawley rat model assessed as effect on PCNA protein level at 10 mg/kg, po by Western blot analysis. In kind it is functional, organism-based.
The test system of data set [5] is Rattus norvegicus. Nature of the data set: In vivo activation of sGC in hypoxia induced Pulmonary Arterial Hypertension Sprague-Dawley rat model assessed as improvement in hypoxia induced PAMT level at 10 mg/kg, po qd measured after 4 weeks by H and E staining based analysis. In kind it is functional, organism-based.
Data set [6] concerns Rattus norvegicus. The data set can be described thus: Antifibrotic activity against induced Pulmonary Arterial Hypertension Sprague-Dawley rat model assessed as attenuation of PKG1 expression level at 10 mg/kg, po by Western blot analysis. In kind it is functional, organism-based.
Data set [7] has as its target Heat shock protein 105 kDa (Homo sapiens) (UniProt Q92598). Nature of the data set: Inhibition of Hsp110 (unknown origin) binding to ATP-FAM expressed in BL21 receptor cells at 50 uM preincubated for 1 hr followed by ATP-FAM (N6-(6-amino)hexyl-ATP-5-FAM addition and measured after 1 hrs by fluorescence polarization assay. In kind it is cell-based. The following applies: time 2.0 hrs. A general note: Fluorescence polarisation rises when a labelled molecule tumbles more slowly, as on binding a larger partner.

The test system of a further data set is HEK293T. Nature of the data set: Activation of sGC in human HEK293T cells assessed as increase in cGMP formation at 10 uM measured every two mins for 2.5 hrs in presence of IBMX /ODQ by fluorescence based analysis. In kind it is cell-based. The following applies: filed as activator.
Data set [8] in a line: In vivo activation of sGC in hypoxia induced Pulmonary Arterial Hypertension Sprague-Dawley rat model assessed as reversal of hypoxia induced RVSP level at 30 mg/kg, po qd measured after 4 weeks (reference value: 17.2mmHg). In kind it is functional.
The nature of data set [9]: In vivo activation of sGC in hypoxia induced Pulmonary Arterial Hypertension Sprague-Dawley rat model assessed as reversal of hypoxia induced RVSP level at 10 mg/kg, po qd measured after 4 weeks (reference value: 17.2mmHg). In kind it is functional.
The nature of data set [10]: Antiproliferative activity against human PASMC cells at 40 uM measured after 24 hrs by Edu staining based analysis. In kind it is toxicity, cell-based.
A short description of data set [11]: Apparent oral volume of distribution in male Sprague-Dawley rat at 1 mg/kg, iv. In kind it is ADME, organism-based. The following applies: in vivo.
Data set [12] in a line: Toxicity in Sprague-Dawley rat assessed as effect on body weight at 10 to 30 mg/kg, po qd measured upto 4 weeks. In kind it is organism-based. The following applies: in vivo, 672 h, dose 10-30 mg/kg.
A short description of data set [13]: Antiproliferative activity against human PASMC cells measured after 48 hrs under hypoxia condition by CCK-8 method. In kind it is toxicity, cell-based. The following applies: 100 µM. (Tetrazolium assays rely on reduction of a dye to a coloured formazan, in cell work by metabolically active cells.)

Activity calls are given as the source filed them. No cut-off for these calls is given here.

For the molecule `COC(=O)N(C)c1c(N)nc(-c2nn(Cc3ccccc3F)c3ncccc23)nc1N` [RIOCIGUAT], the outcome in the data set with Rattus norvegicus [1], with Rattus norvegicus [2], in the data set with Rattus norvegicus [3], in the data set with Rattus norvegicus [5] and in the data set with Rattus norvegicus [6] was Active. Moreover, in the data set with Rattus norvegicus [4], the outcome was inactive.

For `O=C(O)c1ccc(COc2ccc(Cl)cc2NS(=O)(=O)c2ccc(F)cc2)cc1`, the inhibition entry in [7] is “Active”. Besides, the outcome with HEK293T was Active.

For `O=C(O)CCc1cccc(NC(=O)c2cc(Cl)ccc2NC(=O)c2ccc(C(F)(F)F)cc2)c1`, the Activity is 32.4 mmHg in [8]; 27.1 mmHg in [9]; “Toxic” in [10]; “Non-Toxic” in data set [12]; “Dose-Dependent Effect” in [13]. Further, the Vd/F – broadly, the volume of distribution divided by bioavailability – in data set [11] stood at 34.7 L/kg.

For the origin of these results see ChEMBL document CHEMBL5550208, “Discovery and Optimization of Hsp110 and sGC Dual-Target Regulators for the Treatment of Pulmonary Arterial Hypertension” (J Med Chem, 2024).
